From ChEMBL document CHEMBL1828590 (J Med Chem, 2011)

Target: T1, Polyamine deacetylase HDAC10 (Homo sapiens, UniProt Q969S8)
T1 sequence (Q969S8 whole entry): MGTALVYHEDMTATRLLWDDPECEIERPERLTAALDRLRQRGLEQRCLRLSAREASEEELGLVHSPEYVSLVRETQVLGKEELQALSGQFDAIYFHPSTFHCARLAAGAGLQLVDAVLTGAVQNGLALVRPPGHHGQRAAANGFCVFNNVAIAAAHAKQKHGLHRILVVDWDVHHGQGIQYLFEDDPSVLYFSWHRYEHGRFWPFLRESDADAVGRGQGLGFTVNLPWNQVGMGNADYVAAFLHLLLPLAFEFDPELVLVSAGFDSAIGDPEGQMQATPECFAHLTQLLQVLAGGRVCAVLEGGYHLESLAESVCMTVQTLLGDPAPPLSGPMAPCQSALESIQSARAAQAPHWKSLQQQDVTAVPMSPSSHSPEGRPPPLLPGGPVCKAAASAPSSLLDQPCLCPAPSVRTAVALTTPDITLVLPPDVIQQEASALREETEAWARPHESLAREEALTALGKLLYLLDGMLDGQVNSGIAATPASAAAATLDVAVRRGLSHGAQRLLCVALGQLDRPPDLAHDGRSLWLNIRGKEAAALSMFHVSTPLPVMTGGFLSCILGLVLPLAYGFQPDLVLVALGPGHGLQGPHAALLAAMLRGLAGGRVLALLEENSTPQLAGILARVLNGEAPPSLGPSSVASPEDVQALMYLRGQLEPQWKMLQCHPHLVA

How did the Ki turn out when `O=C(CCCCCCC(=O)Nc1ccccc1)NO` [VORINOSTAT] was run?
Its Ki is 60 nM.
